Assay results: ChEMBL document CHEMBL1145986, “Dual protein farnesyltransferase-geranylgeranyltransferase-I inhibitors as potential cancer chemotherapeutic agents” (J Med Chem, 2003)

Target: Protein farnesyltransferase (Homo sapiens, UniProt P49354+P49356)
Test: Concentration required to inhibit recombinant human farnesyltransferase (FTase) catalyzed incorporation of [3H]FPP into recombinant Ras-CVIM.
Assay type: protein-complex assay
Summary of the method: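 Recombinant human FTase transferring [3H]FPP onto recombinant Ras-CVIM, a yeast Ras1/human Ras fusion carrying the K-Ras CaaX box. IC50 is the concentration giving 50% inhibition of label incorporation. Standard errors were typically under ±50% of the mean, and data with n > 2 are given as mean ± SEM.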

IC50: 0.06 nM
SMILES: CC[C@@]1(c2cccc(Oc3cc([C@](C)(N)c4cncn4C)ccc3C#N)c2)CCCCN(C)C1=O
